# Patent publication US20240116898A1, “NOVEL GLUTAMINYL CYCLASE INHIBITORS AND THE USE THEREOF IN TREATMENT OF VARIOUS DISEASES” (LTD "VALENTA-INTELLEKT", priority 2017, published 2024)
# Like-named read-outs stand apart in the source and are kept apart here.
# Legend:
# [1] = tested on: carrageenan-induced rat paw edema; experiment: Carrageenan-induced rat paw edema; type: in vivo; settings: 2 hours after carrageenan
# Description: Experiments were performed on male white nonlinear rats weighing 250-270 g.
# [2] = tested on: bleomycin-induced acute lung injury in mice; settings: 24 h after bleomycin
# [3] = tested on: thioglycolate peritonitis in balb/c mice; settings: 1 mg/kg intragastric, 72 hours
# [4] = tested on: imiquimod-induced psoriasis in Balb/c mice; settings: 0.3 mg/kg intragastric daily
# [5] = tested on: thermal pain irritation hot plate in Balb/c mice
# [6] = tested on: carrageenan air pouch in Balb/c mice
# [7] = tested on: atopic dermatitis in balb/c mice; settings: 3 mg/kg intragastric day 8-17
# [8] = tested on: diabetic nephropathy in rats; experiment: Rat model of diabetic nephropathy (high-fat diet and streptozotocin), urine analysis; type: in vivo; settings: 5 mg/kg in table (50 mg/kg in text), after 6 weeks of intragastric administration
# [9] = tested on: adjuvant arthritis in rats; settings: 0.5 mg/kg
# [10] = tested on: allergic rhinitis in guinea pigs; experiment: Guinea pig model of allergic rhinitis (ovalbumin)
# [11] = tested on: specific pain reaction by chemical irritation of the peritoneum in Balb/c mice; experiment: Abdominal constriction test (acetic acid) in mice
# [12] = tested on: LPS-induced acute lung injury in rats; settings: 1.8 mg/kg intragastric twice, 48 h after LPS
# [13] = 3 mg/kg intragastric, 48 hours after carrageenan
# [14] = 0.3 mg/kg intragastric 1 hour before acetic acid
smiles,measurement,setting,value
"O=C(NCCc1c[nH]cn1)c1cccc(C(=O)NCCc2c[nH]cn2)c1 [Compound II, N,N′-bis[2-(1H-imidazol-4-yl)ethyl]isophthalamide]",Inhibition of edema growth,[1]; 0.18 mg/kg intragastric,34%
same,Inhibition of edema growth,[1]; 1.8 mg/kg intragastric,34%
same,Eosinophils in 1 μl of the bronchoalveolar lavage,[2]; 3 mg/kg intragastric twice,0.00 ± 0.00 in 1 μl
same,Leukocytes in 1 μl of the bronchoalveolar lavage,[2]; 3 mg/kg intragastric twice,122.34 ± 15.96 & in 1 μl
same,Lymphocytes in 1 μl of the bronchoalveolar lavage,[2]; 3 mg/kg intragastric twice,0.00 ± 0.00 in 1 μl
same,Macrophages in 1 μl of the bronchoalveolar lavage,[2]; 3 mg/kg intragastric twice,39.57 ± 7.91*& in 1 μl
same,Neutropils in 1 μl of the bronchoalveolar lavage,[2]; 3 mg/kg intragastric twice,82.77 ± 16.87 *& in 1 μl
same,Eosinophils in 1 μl of the bronchoalveolar lavage,[2]; 30 mg/kg intragastric twice,0.00 ± 0.00 in 1 μl
same,Leukocytes in 1 μl of the bronchoalveolar lavage,[2]; 30 mg/kg intragastric twice,199.12 ± 46.59 & in 1 μl
same,Lymphocytes in 1 μl of the bronchoalveolar lavage,[2]; 30 mg/kg intragastric twice,0.00 ± 0.00 in 1 μl
same,Macrophages in 1 μl of the bronchoalveolar lavage,[2]; 30 mg/kg intragastric twice,143.90 ± 39.26 in 1 μl
same,Neutropils in 1 μl of the bronchoalveolar lavage,[2]; 30 mg/kg intragastric twice,55.21 ± 12.53*& in 1 μl
same,Leukocytes in the exudate from the abdominal cavity,[3],1.97 ± 0.36*& × 10^9/1
same,Monocytes in the exudate from the abdominal cavity,[3],0.65 ± 0.12& × 10^9/1
same,The gain of the thickness of the affected ear to day 0,[4]; Day 3,35.3 ± 2.1 %
same,The gain of the thickness of the affected ear to day 0,[4]; Day 4,48.1 ± 2.8*& %
same,The gain of the thickness of the affected ear to day 0,[4]; Day 5,59.6 ± 4.5*& %
same,The gain of the thickness of the affected ear to day 0,[4]; Day 6,70.6 ± 4.4*& %
same,"The threshold of pain sensitivity (TPS), after 1 hour",[5]; 0.3 mg/kg intragastric,97.43 ± 6.43 % to the background
same,"The threshold of pain sensitivity (TPS), after 1 hour",[5]; 3 mg/kg intragastric,90.54 ± 6.59 % to the background
same,"The threshold of pain sensitivity (TPS), after 1 hour",[5]; 30 mg/kg intragastric,110.18 ± 11.9 % to the background
same,Reduction of the influx of leukocytes and macrophages,[6]; 3 mg/kg,10 times
same,Leukocytes in the exudate from the carrageenan pouch,[6]; [13],1.0 ± 0.1 & × 10^9/1
same,Macrophages in the exudate from the carrageenan pouch,[6]; [13],0.5 ± 0.1 & × 10^9/1
same,Reaction index,[7],38.1 ± 7.7*& %
same,The difference between the mass of the experiment and control ear,[7],0.013 ± 0.002*& mg
same,ACR,[8],202.3 ± 26.8 & protein(μg/l)/creatinine (mg/l
same,Daily protein,[8],1846.3 ± 337.6 μg/18 h
same,Dieresis,[8],7.45 ± 1.0 ml/18 h.
same,The gain of the volume of the affected paw,[9]; Day 14,118.8 ± 3.6 % to the initial level
same,The gain of the volume of the contralateral paw,[9]; Day 14,5.39 ± 1.67 % to the initial level
same,The gain of the volume of the affected paw,[9]; Day 16,105 ± 3.2 % to the initial level
same,The gain of the volume of the contralateral paw,[9]; Day 16,6.75 ± 1.58 % to the initial level
same,The gain of the volume of the affected paw,[9]; Day 18,104.4 ± 2.7*& % to the initial level
same,The gain of the volume of the contralateral paw,[9]; Day 18,18.48 ± 1 % to the initial level
same,The gain of the volume of the affected paw,[9]; Day 21,86.3 ± 3.9*& % to the initial level
same,The gain of the volume of the contralateral paw,[9]; Day 21,19.77 ± 1.67*& % to the initial level
same,The gain of the volume of the affected paw,[9]; Day 25,88.5 ± 2.4*& % to the initial level
same,The gain of the volume of the contralateral paw,[9]; Day 25,15.45 ± 1.21*& % to the initial level
same,The gain of the volume of the affected paw,[9]; Day 28,86.9 ± 2.3*& % to the initial level
same,The gain of the volume of the contralateral paw,[9]; Day 28,14.04 ± 1.75*& % to the initial level
same,The gain of the volume of the affected paw,[9]; Day 30,83.2 ± 2.2*& % to the initial level
same,The gain of the volume of the contralateral paw,[9]; Day 30,13.02 ± 0.94*& % to the initial level
"O=C(CC(=O)NCCc1cnc[nH]1)NCCc1cnc[nH]1 [Compound IV, N,N′-bis[2-(1H-imidazol-4-yl)ethyl]malonamide]",A quantity of scratchings of the nose/2 hours,[10]; 0.14 mg/kg intragastric once,5.3 ± 1.14 /2 hours
same,A quantity of sneezes/2 hours,[10]; 0.14 mg/kg intragastric once,1.4 ± 0.67& /2 hours
same,A quantity of scratchings of the nose/2 hours,[10]; 1.4 mg/kg intragastric once,1.8 ± 1& /2 hours
same,A quantity of sneezes/2 hours,[10]; 1.4 mg/kg intragastric once,1.4 ± 0.6& /2 hours
same,Quantity of constrictions for 15 minutes,[11]; 0.03 mg/kg intragastric 1 hour before acetic acid,23.60 ± 2.54
same,Quantity of constrictions for 15 minutes,[11]; [14],15.50 ± 2.63
same,Quantity of constrictions for 15 minutes,[11]; 3 mg/kg intragastric 1 hour before acetic acid,19.20 ± 3.43
same,Quantity of constrictions for 15 minutes,[11]; 30 mg/kg intragastric 1 hour before acetic acid,15.30 ± 3.10
same,Eosinophils in 1 μl of the bronchoalveolar lavage,[12],0 ± 0 in 1 μl
same,Leukocytes in 1 μl of the bronchoalveolar lavage,[12],4485 ± 815 & in 1 μl
same,Lymphocytes in 1 μl of the bronchoalveolar lavage,[12],0 ± 0 in 1 μl
same,Macrophages in 1 μl of the bronchoalveolar lavage,[12],3699 ± 653& in 1 μl
same,Neutrophils in 1 μl of the bronchoalveolar lavage,[12],785 ± 181& in 1 μl
"O=C(NCCc1cnc[nH]1)c1ccc(C(=O)NCCc2cnc[nH]2)cc1 [Compound X, N,N′-bis[2-(1H-imidazol-4-yl)ethyl]terephthalamide]",Quantity of constrictions for 15 minutes,[11]; [14],17.2 ± 3.4
